{"sequences": {"note": "Sequences of proteins named here, by UniProt entry; tags and fusion partners are left off. Residues count along the entry.", "UniProt P53634, 25-463 limits assumed": "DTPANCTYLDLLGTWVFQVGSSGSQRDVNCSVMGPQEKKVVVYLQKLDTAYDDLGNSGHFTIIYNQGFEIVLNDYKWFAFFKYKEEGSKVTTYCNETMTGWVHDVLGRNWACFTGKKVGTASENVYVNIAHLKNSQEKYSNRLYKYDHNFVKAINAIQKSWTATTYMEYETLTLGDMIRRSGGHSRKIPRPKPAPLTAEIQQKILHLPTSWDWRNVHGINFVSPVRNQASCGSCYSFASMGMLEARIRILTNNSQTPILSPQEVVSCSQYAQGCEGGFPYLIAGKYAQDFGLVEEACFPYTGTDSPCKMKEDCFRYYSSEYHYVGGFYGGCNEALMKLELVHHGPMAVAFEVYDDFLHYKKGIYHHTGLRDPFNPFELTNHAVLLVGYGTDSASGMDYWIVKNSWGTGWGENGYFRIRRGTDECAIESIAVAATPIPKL"}, "source": "patent EP2544684B1", "about": "“4,4-DISUBSTITUTED PIPERIDINE DERIVATIVES USEFUL AS INHIBITORS OF DIPEPTIDYL PEPTIDASE-1 (DPP-1)” (Janssen Pharmaceutica NV, priority 2010, dated 2011)", "target": "DPP-1 (Cathepsin C) (Homo sapiens, UniProt P53634)", "assay": "DPP-1 Inhibition Assay (in vitro), fluorogenic substrate GR-AMC", "format": "biochemical", "details": "recombinant human DPP-1 0.15 nM, 10 uM GR-AMC, pH 7.0, room temperature; average value where tested multiple times", "experimental": "Test compounds were assessed for DPP-1 (Cathepsin C) inhibitory activity using a fluorogenic substrate, GR-AMC (Glycine-Arginine-amino-4-methylcoumarin, Bachem, I-1215). The amount of amino-methylcoumarin released is proportional to the DPP-1 activity, and the reaction is monitored kinetically with a Molecular Devices plate reader using black 96-well plates.\nAll compounds were tested under room temperature conditions. The assay buffer consisted of 50 mM HEPES, pH 7.0, 100 mM NaCl, 2 mM glutathione (GSH), and 0.002% TWEEN 20. GSH and TWEEN 20 were added to the buffer fresh daily. Just prior to use, an in-house preparation of recombinant human DPP-1 (240 µM stock, MW 49.6 kD) was diluted 600-fold in assay buffer containing fresh 2 mM dithiothreitol (DTT) to activate the enzyme, then diluted into assay buffer (without DTT) 133-fold for a DPP-1 working solution of 3 nM. […]\nAdditions to a 96-well black Costar 3915 plates were as follows: 90 µL of 11 µM GR-AMC, 5 µL test compound (followed by mixing), and 5 µL 3 nM DPP-1 to start the reaction. Fluorescent reactions were monitored kinetically at 360 nm excitation, 440 nm emission on a Molecular Devices Spectramax XPS reader. The Softmax Pro software of the reader determined the initial velocity of the selected data (the first 3-5 minutes of the reaction), and the best linear regression fit of the initial kinetic data. […]"}
{"molecule": "N#Cc1ccc(CC2(C(=O)NCC3CCCCC3)CCN(C(=O)[C@@H](N)Cc3cccs3)CC2)cc1", "values": [{"measurement": "IC50", "result": 27, "unit": "nM"}]}
